Measurements as given in PubChem BioAssay AID720551 (National Center for Advancing Translational Sciences (NCATS), 2013).
Only a part is listed here, and it is no random draw. The source made the active and inactive calls.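 The calls were made as follows: active = maximum activity change below -70%; inconclusive = maximum activity change between -70% and -50%; inactive = maximum activity change above -50%.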

Chains of the proteins cited; added tags and fusions are not shown. Lines headed by an entry give the natural chain unless they say otherwise; changes in a name come on top.
UniProt Q12809: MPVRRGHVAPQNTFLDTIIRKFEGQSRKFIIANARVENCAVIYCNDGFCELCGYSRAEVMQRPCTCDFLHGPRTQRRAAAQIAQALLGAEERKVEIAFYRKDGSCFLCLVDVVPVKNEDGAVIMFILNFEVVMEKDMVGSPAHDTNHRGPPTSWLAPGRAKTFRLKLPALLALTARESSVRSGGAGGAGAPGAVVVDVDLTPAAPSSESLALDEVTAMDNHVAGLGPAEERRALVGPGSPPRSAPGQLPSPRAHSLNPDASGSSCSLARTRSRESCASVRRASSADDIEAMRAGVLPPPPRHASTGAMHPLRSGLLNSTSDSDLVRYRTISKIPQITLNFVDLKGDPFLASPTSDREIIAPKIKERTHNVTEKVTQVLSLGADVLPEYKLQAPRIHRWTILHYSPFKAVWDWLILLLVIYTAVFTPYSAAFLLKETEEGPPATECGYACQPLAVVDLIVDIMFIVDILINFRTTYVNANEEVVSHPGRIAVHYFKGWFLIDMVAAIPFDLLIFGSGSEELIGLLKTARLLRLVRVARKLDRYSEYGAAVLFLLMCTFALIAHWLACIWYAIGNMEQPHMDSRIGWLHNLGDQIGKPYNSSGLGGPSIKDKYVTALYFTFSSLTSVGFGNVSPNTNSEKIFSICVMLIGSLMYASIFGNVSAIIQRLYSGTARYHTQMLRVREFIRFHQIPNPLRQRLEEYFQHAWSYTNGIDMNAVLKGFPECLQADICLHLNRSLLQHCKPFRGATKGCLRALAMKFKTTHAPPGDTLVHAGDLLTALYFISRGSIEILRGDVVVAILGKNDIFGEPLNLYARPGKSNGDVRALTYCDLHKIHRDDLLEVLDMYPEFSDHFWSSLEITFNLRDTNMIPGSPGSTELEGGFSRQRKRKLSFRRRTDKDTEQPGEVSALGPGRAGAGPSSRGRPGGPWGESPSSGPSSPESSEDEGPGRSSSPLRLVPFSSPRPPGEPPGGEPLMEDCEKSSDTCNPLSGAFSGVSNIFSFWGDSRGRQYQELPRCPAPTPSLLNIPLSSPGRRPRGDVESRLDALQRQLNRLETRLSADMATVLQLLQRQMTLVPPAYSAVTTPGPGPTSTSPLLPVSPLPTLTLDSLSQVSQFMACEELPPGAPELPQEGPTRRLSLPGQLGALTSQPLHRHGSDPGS

target: Voltage-gated inwardly rectifying potassium channel KCNH2 (Homo sapiens) (UniProt Q12809); test: qHTS for Inhibitors of KCHN2 3.1: Wildtype qHTS; details: U2OS, BacMam KCNH2, thallium flux FluxOr; at 1.84 µM, active compounds read low
From the text: Many antipsychotic drugs that inhibit the neurotransmitter dopamine also bind to hERG1 channel which might help explain their antipsychotic activity but also produces cardiac side effects. The discovery of the novel KCNH2 3.1 isoform offers a potential new target for the development of antipsychotic drugs without cardiac side effects. This proposal will use a high throughput thallium flux assay developed for KCNH2 to screen compounds that modulate the activity of KCNH2 3.1. The wild type KCNH2 channel will also be screened in parallel to help define the selective modulators of this KCNH2 3.1 potassium channel. The resulting compounds will be validated in electrophysiology experiments. The availability of animal models will allow future testing in vivo for effects on memory and other aspects of animal physiology linked with psychosis. NIH Chemical Genomics Center [NCGC] NIH Molecular Libraries Probe Centers Network [MLPCN] MLPCN Grant: MH096539 Assay Submitter (PI): James Barrow, Johns Hopkins University, Lieber Institute for Brain Development
U2OS cells were resuspended in cell media containing 10% fetal calf serum (FCS) at a concentration of 2 million cells / mL. The solution was treated with the Wild-type virus at 2.03 x 10^8 / mL and allowed to incubate at room temperature in the dark. After 4 hours of incubation, DMEM + 10% fetal bovine serum (FBS) was added to the cell solution. Three microliter was then dispensed into a 1536 tissue culture treated black assay plates which were incubated overnight at 37 C. Two microliter of loading buffer (HBSS + HEPES + Red40 dye quencher + FluxOr dye) was added and the assay plates were incubated for 45 min at room temperature in the dark. […] A stimulation buffer was added to the plate and the second kinetic read (2 min) was obtained. The rate constant was calculated from the kinetic reads and normalized to the positive and negative DMSO controls.
% is scaled to controls: 0 for no effect and ±100 for the full control effect.

Compound	activity change
COP1(=S)c2c(C)nn(CCC#N)c2N=C(c2ccc(F)cc2)N1C (stereo not drawn)	inactive: -7.05%
O=C(COc1ccccc1)OC1CN2CCC1CC2 (stereo not drawn)	active: -219%
O=C(Nc1ccncc1[N+](=O)[O-])c1ccc([N+](=O)[O-])cc1[N+](=O)[O-]	inactive: -2.07%
O=C(O)C(=O)c1ccc(N(CCCl)CCCl)cc1	active: -122%
CCOC(=O)c1ccc(NC(=O)C(C)(CCl)SC)cc1 (stereo not drawn)	inactive: -8.65%
O=C(OC1CN2CCC1CC2)c1cccc([N+](=O)[O-])c1 (stereo not drawn)	inactive: 9.11%
CSc1ccc(Nc2c([N+](=O)[O-])cc([N+](=O)[O-])cc2[N+](=O)[O-])cc1	inactive: 8.33%
CCC(C)N(CC(C)C)C(=S)SC(NC(C)=O)C(Cl)(Cl)Cl (stereo not drawn)	inactive: -3.85%
CC1CCNP(=O)(N(CCCl)CCCl)O1 (stereo not drawn)	inactive: 0.656%
O=C(O)C(O)c1ccc(N(CCCl)CCCl)cc1 (stereo not drawn)	inactive: -5.19%
CCCCOc1ccc(C(=O)NCC2(N3CCCCC3)CCCCC2)cc1OC	inactive: 1.06%
Cc1cc(SC(NC(=O)c2ccccc2)C(Cl)(Cl)Cl)nc(C(C)C)n1 (stereo not drawn)	inactive: 5.71%
COP(=O)(OC)N1CC1c1ccccc1 (stereo not drawn)	inactive: 4.96%
CCOC(=O)Nc1cccc([As](=O)(O)O)c1	inactive: 28.4%
O=P(Nc1ccccn1)(c1cccc2ccccc12)c1cccc2ccccc12	inactive: 8.33%
Cc1cc(SC(NC=O)C(Cl)(Cl)Cl)ncn1 (stereo not drawn)	inactive: -9.62%
O=[As](O)(c1ccc(O)cc1)c1ccccc1O	inactive: 1.22%
C[As](=O)(O)c1cccc(C(=O)O)c1	inactive: 3.95%
COc1cc(C(=O)NCC2(N3CCOCC3)CCCCC2)ccc1OCC(C)C	inactive: 7.56%
O=[N+]([O-])c1ccc(-c2cc([N+](=O)[O-])c(O)c([N+](=O)[O-])c2)cc1	inactive: -5.11%
Cc1ccc2nc3c(c(C)c2c1)CC(C(Cl)Cl)S3 (stereo not drawn)	inactive: -0.626%
Cc1ccc(OP(=O)(Nc2ccc([N+](=O)[O-])cn2)Oc2ccc(C)cc2)cc1	inactive: -12.7%
CC(C)c1ccc(OP(=O)(Nc2ccccn2)Oc2ccccc2F)cc1 (stereo not drawn)	inactive: 15.6%
COC(=O)C1(C)COP(=O)(N2CCCCCC2)OC1 (stereo not drawn)	inactive: 30%
ClCCSc1nnc(-c2cccnc2)o1	inactive: -16.7%
CCN(CC)C(=S)SC(NC=O)C(Cl)(Cl)Cl (stereo not drawn)	inactive: 13.5%
O=C(OC1CN2CCC1CC2)c1cccc2[nH]cnc12 (stereo not drawn)	inactive: 17.3%
CC(C)NC(=O)NP(=O)(Oc1ccccc1)Oc1ccccc1	inactive: -8.65%
